This assay deals with HeLa cells. Briefly: FACS analysis of cell permeability of fluorescein-conjugated peptides. Particulars: 10 μM fluorescein-conjugated peptide, 2 h, relative to DMSO control. It counts as cell-based. As to the method:
FIG. 6. An example of flow cytometry analysis of HeLa cells after treatment with 10 μM fluorescein-conjugated peptides: (a) Representative histograms; (b) Bar graph showing normalized mean fluorescence.
FACS Analysis. HeLa Cells were cultured in DMEM medium supplemented with 10% fetal bovine serum in 6-well plate in a 37° C., 5% CO2 incubator to reach confluency of around 70%. The cells were then washed twice with PBS before switching to serum-free DMEM medium. After standing in the incubator for 30 minutes, appropriate amounts of peptides (1 mM in DMSO) were added to the culture plate to obtain a final peptide concentration of 10 μM. Cells were incubated at 37° C. for additional 2 hrs. Then the medium was removed and the cells were washed with PBS (3×) followed by treatment with trypsin to detach the cells. After a brief low-speed centrifugation, the HeLa cells were collected and re-suspended in PBS for the FACS analysis.
(In general: In flow cytometry, cells or beads pass a laser one at a time.)

In the case of LTFEHYWAQLTS [PDI, reference compound], the cell penetration result is given as “minimal cell penetration”.

The values are drawn from patent US9029332B2, “Cross-linked peptides and proteins, methods of making same, and uses thereof” (The Research Foundation for The State University of New York, priority 2010, dated 2015).
